# Cyclic peptide permeability, from CycPeptMPDB

Collected by the curators of CycPeptMPDB (Li et al. 2023) from Kelly et al. 2021, doi:10.1021/jacs.0c06115.

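The data file gives no further conditions (lipid, pH, time, direction or concentration), and values from different papers need not be comparable. Other peptides of the study may be missing here. Entries at the database's floor value (log10 P of -10) are not listed.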

PAMPA measures passive passage through an artificial lipid membrane. Values are log10 P with P in cm/s, so -5 is more permeable than -7.

SMILES,PAMPA (log10 cm/s)
CC(=O)N1CCC[C@H]1C(=O)N(C)[C@@H](CC(C)C)C(=O)N[C@@H]1C(=O)N[C@@H](CC(C)C)C(=O)N(C)[C@@H](CC(C)C)C(=O)N(C)[C@@H](CC(C)C)C(=O)N[C@@H](C)C(=O)N[C@@H](CC(C)C)C(=O)N2CCC[C@H]2C(=O)O[C@@H]1C,-6.84
CC(=O)N1CCC[C@H]1C(=O)N(C)[C@@H](CC(C)C)C(=O)N[C@@H]1C(=O)N[C@H](CC(C)C)C(=O)N(C)[C@@H](CC(C)C)C(=O)N[C@@H](CC(C)C)C(=O)N(C)[C@H](C)C(=O)N[C@H](CC(C)C)C(=O)N2CCC[C@@H]2C(=O)O[C@@H]1C,-5.83
CC(=O)N1CCC[C@@H]1C(=O)N(C)[C@@H](CC(C)C)C(=O)N[C@@H]1C(=O)N[C@H](CC(C)C)C(=O)N(C)[C@@H](CC(C)C)C(=O)N[C@H](CC(C)C)C(=O)N(C)[C@H](C)C(=O)N[C@@H](CC(C)C)C(=O)N2CCC[C@H]2C(=O)O[C@@H]1C,-5.71
CC(=O)N1CCC[C@H]1C(=O)N(C)[C@H](CC(C)C)C(=O)N[C@@H]1C(=O)N(C)[C@@H](CC(C)C)C(=O)N[C@@H](CC(C)C)C(=O)N(C)[C@@H](CC(C)C)C(=O)N(C)[C@@H](C)C(=O)N[C@H](CC(C)C)C(=O)N2CCC[C@H]2C(=O)O[C@@H]1C,-6.59
CC(=O)N1CCC[C@H]1C(=O)N[C@@H]1C(=O)N[C@H](CC(C)C)C(=O)N[C@H](CC(C)C)C(=O)N(C)[C@H](CC(C)C)C(=O)N[C@@H](CC(C)C)C(=O)N(C)[C@@H](C)C(=O)N[C@@H](CC(C)C)C(=O)N2CCC[C@@H]2C(=O)O[C@@H]1C,-5.42
CC(=O)N1CCC[C@H]1C(=O)N[C@@H]1C(=O)N(C)[C@H](CC(C)C)C(=O)N(C)[C@@H](CC(C)C)C(=O)N(C)[C@H](CC(C)C)C(=O)N[C@@H](CC(C)C)C(=O)N(C)[C@@H](C)C(=O)N[C@@H](CC(C)C)C(=O)N2CCC[C@@H]2C(=O)O[C@@H]1C,-4.93
CC(=O)N1CCC[C@@H]1C(=O)N(C)[C@@H](CC(C)C)C(=O)N[C@@H]1C(=O)N[C@H](CC(C)C)C(=O)N(C)[C@H](CC(C)C)C(=O)N(C)[C@@H](CC(C)C)C(=O)N(C)[C@@H](C)C(=O)N[C@@H](CC(C)C)C(=O)N2CCC[C@@H]2C(=O)O[C@@H]1C,-5.28
CC(=O)N1CCC[C@@H]1C(=O)N(C)[C@H](CC(C)C)C(=O)N[C@@H]1C(=O)N[C@H](CC(C)C)C(=O)N[C@@H](CC(C)C)C(=O)N[C@@H](CC(C)C)C(=O)N(C)[C@@H](C)C(=O)N[C@@H](CC(C)C)C(=O)N2CCC[C@@H]2C(=O)O[C@@H]1C,-6.05
CC(=O)N1CCC[C@H]1C(=O)N(C)[C@H](CC(C)C)C(=O)N[C@@H]1C(=O)N[C@H](CC(C)C)C(=O)N(C)[C@H](CC(C)C)C(=O)N(C)[C@@H](CC(C)C)C(=O)N(C)[C@H](C)C(=O)N[C@@H](CC(C)C)C(=O)N2CCC[C@@H]2C(=O)O[C@@H]1C,-5.23
CC(=O)N1CCC[C@H]1C(=O)N(C)[C@@H](CC(C)C)C(=O)N[C@@H]1C(=O)N[C@H](CC(C)C)C(=O)N(C)[C@@H](CC(C)C)C(=O)N[C@@H](CC(C)C)C(=O)N(C)[C@@H](C)C(=O)N[C@@H](CC(C)C)C(=O)N2CCC[C@@H]2C(=O)O[C@@H]1C,-5.60
CC(=O)N1CCC[C@H]1C(=O)N(C)[C@H](CC(C)C)C(=O)N[C@@H]1C(=O)N(C)[C@@H](CC(C)C)C(=O)N(C)[C@@H](CC(C)C)C(=O)N[C@@H](CC(C)C)C(=O)N(C)[C@H](C)C(=O)N[C@@H](CC(C)C)C(=O)N2CCC[C@@H]2C(=O)O[C@@H]1C,-5.32
CC(=O)N1CCC[C@H]1C(=O)N[C@@H]1C(=O)N(C)[C@H](CC(C)C)C(=O)N[C@H](CC(C)C)C(=O)N[C@@H](CC(C)C)C(=O)N(C)[C@H](CC(C)C)C(=O)N[C@H](C)C(=O)N[C@@H](CC(C)C)C(=O)N2CCC[C@@H]2C(=O)O[C@@H]1C,-5.53
CC(=O)N1CCC[C@@H]1C(=O)N(C)[C@@H](CC(C)C)C(=O)N[C@@H]1C(=O)N(C)[C@H](CC(C)C)C(=O)N(C)[C@H](CC(C)C)C(=O)N[C@H](CC(C)C)C(=O)N(C)[C@H](C)C(=O)N[C@@H](CC(C)C)C(=O)N2CCC[C@@H]2C(=O)O[C@@H]1C,-5.09

Extract of 2 entries:

SMILES,PAMPA (log10 cm/s)
CC(=O)N1CCC[C@@H]1C(=O)N(C)[C@@H](CC(C)C)C(=O)N[C@@H]1C(=O)N(C)[C@H](CC(C)C)C(=O)N(C)[C@H](CC(C)C)C(=O)N[C@H](CC(C)C)C(=O)N(C)[C@H](C)C(=O)N[C@@H](CC(C)C)C(=O)N2CCC[C@@H]2C(=O)O[C@@H]1C,-5.09
CC(=O)N1CCC[C@H]1C(=O)N[C@@H]1C(=O)N(C)[C@H](CC(C)C)C(=O)N[C@H](CC(C)C)C(=O)N[C@@H](CC(C)C)C(=O)N(C)[C@H](CC(C)C)C(=O)N[C@H](C)C(=O)N[C@@H](CC(C)C)C(=O)N2CCC[C@@H]2C(=O)O[C@@H]1C,-5.53